Experimental data taken from patent US20220024882A1, “NOVEL TUMOR ANTIGEN BINDING AGENTS AND USES THEREOF” (ITM Isotopen Technologien München AG, priority 2018, published 2022).
pKd: −log10 of the molar value. Values joined by “and” are separate entries in the source; they are usually repeats but may differ in a detail not shown here. Identical values can stand only once. Like-named read-outs stand apart in the source and are kept apart here.

Chains of the proteins cited; added tags and fusions are not shown.
UniProt Q04609, whole entry: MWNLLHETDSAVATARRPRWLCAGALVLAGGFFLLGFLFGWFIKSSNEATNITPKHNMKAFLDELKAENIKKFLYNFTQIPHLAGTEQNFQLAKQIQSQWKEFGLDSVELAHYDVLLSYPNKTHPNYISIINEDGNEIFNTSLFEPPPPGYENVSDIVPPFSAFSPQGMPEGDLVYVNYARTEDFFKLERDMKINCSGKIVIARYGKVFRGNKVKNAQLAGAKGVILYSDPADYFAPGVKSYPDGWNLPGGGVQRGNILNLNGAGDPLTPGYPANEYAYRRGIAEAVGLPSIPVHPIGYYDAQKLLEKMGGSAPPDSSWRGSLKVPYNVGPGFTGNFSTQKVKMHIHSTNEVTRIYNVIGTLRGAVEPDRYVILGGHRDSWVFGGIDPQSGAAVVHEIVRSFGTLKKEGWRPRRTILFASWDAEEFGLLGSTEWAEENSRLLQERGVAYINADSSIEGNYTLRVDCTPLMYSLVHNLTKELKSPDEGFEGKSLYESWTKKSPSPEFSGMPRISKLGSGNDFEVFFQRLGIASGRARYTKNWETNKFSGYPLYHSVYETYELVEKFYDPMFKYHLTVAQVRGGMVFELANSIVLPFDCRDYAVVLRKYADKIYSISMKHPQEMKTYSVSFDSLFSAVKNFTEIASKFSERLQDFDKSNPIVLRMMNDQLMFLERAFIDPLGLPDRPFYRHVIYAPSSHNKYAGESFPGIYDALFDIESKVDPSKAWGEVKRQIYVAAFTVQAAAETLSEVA

Key:
PSMA = PSMA (Homo sapiens, UniProt Q04609); experiment: Determination of KD values (PSMA-binding affinity); conditions: PSMA-binding affinity of the 177Lu radioligand; tested as the radiolabelled form
[1] = previously obtained (Umbricht et al.), tested as the radiolabelled form; cited from earlier work
[2] = test system: PSMA-positive PC-3 PIP tumor-bearing mice; conditions: earlier therapy study, tested as the radiolabelled form, cited from earlier work

SMILES: Cc1ccc(CCCC(=O)NCCCC[C@H](NC(=O)CN2CCN(CC(=O)O)CCN(CC(=O)O)CCN(CC(=O)O)CC2)C(=O)NCC2CCC(C(=O)N[C@@H](Cc3ccc4ccccc4c3)C(=O)NCCCC[C@H](NC(=O)N[C@@H](CCC(=O)O)C(=O)O)C(=O)O)CC2)cc1 (stereo partly drawn)
- pKd (PSMA): 7.52
- n-octanol/PBS distribution coefficient (log D value) [1]: -2.9
- TGDI5 (tumor growth delay index, 5-fold increase of tumor size) ([2]; 2 MBq per mouse): 1.8 and 1.8 ± 0.5
- mice of the group in which the tumors disappeared entirely ([2]; 5 MBq per mouse, n=6): four
- mice still alive at the end of the study at Day 84 ([2]; 5 MBq per mouse, n=6): four
- TGDI5 (tumor growth delay index, 5-fold increase of tumor size) ([2]; 5 MBq per mouse): not defined
- average relative body weight at the time of euthanasia ([2]; 5 MBq per mouse): 1.20±0.14
- day on which the two mice with tumor regrowth reached the endpoint ([2]; 5 MBq per mouse): 58 days and 68 days
- median survival ([2]; 5 MBq per mouse): undefined
